Experimental data taken from article PMC10137179 (Cells, 2023).

Chains of the proteins cited; added tags and fusions are not shown. Lines headed by an entry give the natural chain unless they say otherwise; changes in a name come on top.
UniProt P16791: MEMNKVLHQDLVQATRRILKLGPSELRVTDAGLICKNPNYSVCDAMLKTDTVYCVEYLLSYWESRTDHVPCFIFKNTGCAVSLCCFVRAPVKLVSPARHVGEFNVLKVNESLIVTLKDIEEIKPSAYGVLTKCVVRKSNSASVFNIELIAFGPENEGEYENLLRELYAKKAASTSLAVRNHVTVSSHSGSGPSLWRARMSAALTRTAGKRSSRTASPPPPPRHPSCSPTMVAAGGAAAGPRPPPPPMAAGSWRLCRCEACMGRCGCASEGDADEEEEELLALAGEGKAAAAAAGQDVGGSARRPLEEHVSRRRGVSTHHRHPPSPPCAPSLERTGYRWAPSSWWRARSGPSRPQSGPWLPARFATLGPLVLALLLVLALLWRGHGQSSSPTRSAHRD

Experiments:
[1] = target: pUL50–pUL53 interaction (LgBiT::UL53(1–87)-Flag + SmBiT::UL50-HA) (Human cytomegalovirus, UniProt P16791); conditions: 293T cells, 5×, 1× or 0.2× anti-HCMV EC50 levels, truncated LgBiT::UL53(1–87)-Flag
[2] = target: pUL50–pUL53 interaction (LgBiT::UL53-Flag + SmBiT::UL50-HA) (Human cytomegalovirus, UniProt P16791); conditions: 293T cells, 5×, 1× or 0.2× anti-HCMV EC50 levels, full-length LgBiT::UL53-Flag

CCOc1cc2ncc(C#N)c(Nc3ccc(OCc4ccccn4)c(Cl)c3)c2cc1NC(=O)/C=C/CN(C)C [neratinib]
inhibitory effect on NanoBiT interaction signal (in words) [1]: very minor or no effects | inhibitory effect on NanoBiT interaction signal (in words) [2]: very minor or no effects
